Our source for the inhibition and Ratio values is ChEMBL document CHEMBL1212911, “Identification of potent and selective amidobipyridyl inhibitors of protein kinase D” (J Med Chem, 2010).

By UniProt entry, the sequences of proteins in these tests, tags left out.
UniProt Q13554, whole entry: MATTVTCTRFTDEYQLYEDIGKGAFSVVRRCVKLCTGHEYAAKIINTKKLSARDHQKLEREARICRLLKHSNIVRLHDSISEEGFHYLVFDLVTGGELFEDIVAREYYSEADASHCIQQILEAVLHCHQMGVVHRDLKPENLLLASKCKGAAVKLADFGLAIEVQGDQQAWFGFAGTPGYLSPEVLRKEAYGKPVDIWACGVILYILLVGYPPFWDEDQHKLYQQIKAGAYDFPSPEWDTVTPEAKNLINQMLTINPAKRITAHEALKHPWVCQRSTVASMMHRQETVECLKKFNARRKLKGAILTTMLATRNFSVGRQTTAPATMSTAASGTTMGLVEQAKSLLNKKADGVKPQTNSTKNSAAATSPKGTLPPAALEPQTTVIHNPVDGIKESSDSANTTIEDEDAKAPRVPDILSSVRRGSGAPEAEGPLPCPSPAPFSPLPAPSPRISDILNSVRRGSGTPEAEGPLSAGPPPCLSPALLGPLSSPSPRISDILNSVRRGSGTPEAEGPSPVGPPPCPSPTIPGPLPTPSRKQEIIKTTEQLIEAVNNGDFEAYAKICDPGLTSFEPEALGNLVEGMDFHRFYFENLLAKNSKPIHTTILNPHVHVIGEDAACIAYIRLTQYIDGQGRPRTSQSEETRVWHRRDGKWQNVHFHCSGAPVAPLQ

Data set [1] in a line: Inhibition of rat CaMK2beta. Conditions: concentration not given here.
The target in data set [2] is Calcium/calmodulin-dependent protein kinase type II subunit beta (Homo sapiens) (UniProt Q13554). Description: Inhibition of human CaMK2beta. Conditions: concentration not given here. Summed up:
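Selectivity screen run externally (Invitrogen SelectScreen). Percent inhibition measured at 1 μM compound, mean of 2 measurements.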

The next data set has as its system Caco-2. The data set can be described thus: Ratio of permeability from apical to basolateral side to basolateral to apical side in human Caco-2 cells. The format is ADME, cell-based. On the technique in general: Passage across Caco-2 layers is used to estimate intestinal permeability.

Broadly, the inhibition is the drop in the measured response relative to a control, in per cent. Turning to `c1cc2c(N3CCNCC3)nc(-c3ccnc(NC4CCCCC4)c3)cc2cn1`, the inhibition in data set [1] and in data set [2] was 36% throughout.

In the case of `NC(=O)c1cc(-c2ccnc(NC3CCCCC3)c2)nc(N2CCNCC2)c1`, the inhibition in data set [1] amounted to 0%. Also, the Ratio in the data set with Caco-2 came out at 7.89.
